The values below are quoted from earlier work in article PMC3491360 (ACS medicinal chemistry letters, 2012).

Sequences of proteins named here, by UniProt entry; tags and fusion partners are left off.
UniProt P0DMS8, whole entry: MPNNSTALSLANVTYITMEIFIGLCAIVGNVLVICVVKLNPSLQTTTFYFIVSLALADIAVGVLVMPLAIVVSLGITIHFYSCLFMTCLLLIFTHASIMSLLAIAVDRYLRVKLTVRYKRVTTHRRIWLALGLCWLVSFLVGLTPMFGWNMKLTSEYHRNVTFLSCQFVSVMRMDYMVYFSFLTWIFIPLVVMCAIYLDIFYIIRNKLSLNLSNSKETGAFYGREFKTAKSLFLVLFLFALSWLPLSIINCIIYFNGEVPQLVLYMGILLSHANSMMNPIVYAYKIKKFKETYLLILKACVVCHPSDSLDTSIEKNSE

The target in the series is hA3AR (Homo sapiens, UniProt P0DMS8). The note with it: read-out: Affinity (Ki) hA3; CHO cell membranes; ref Melman et al.[19]; cited from earlier work.

By Ki is commonly meant a measure of affinity in units of concentration, obtained from inhibition or displacement. As to `OC1C(O)C(n2cnc3c(NCc4cccc(Cl)c4)nc(Cl)nc32)C2CC12` (stereo not shown) [Compound 2b], the inhibition constant (Ki) was 1.06 nM.
